Assay results taken from ChEMBL document CHEMBL3351908, “Alpha-ethyltryptamines as dual dopamine-serotonin releasers” (2014).
Active and inactive are the calls of the source. The rule behind the calls is not given here.

Protein sequences, listed by entry. Tags and fused reporters are not part of them.
UniProt P28223, whole entry, looked up: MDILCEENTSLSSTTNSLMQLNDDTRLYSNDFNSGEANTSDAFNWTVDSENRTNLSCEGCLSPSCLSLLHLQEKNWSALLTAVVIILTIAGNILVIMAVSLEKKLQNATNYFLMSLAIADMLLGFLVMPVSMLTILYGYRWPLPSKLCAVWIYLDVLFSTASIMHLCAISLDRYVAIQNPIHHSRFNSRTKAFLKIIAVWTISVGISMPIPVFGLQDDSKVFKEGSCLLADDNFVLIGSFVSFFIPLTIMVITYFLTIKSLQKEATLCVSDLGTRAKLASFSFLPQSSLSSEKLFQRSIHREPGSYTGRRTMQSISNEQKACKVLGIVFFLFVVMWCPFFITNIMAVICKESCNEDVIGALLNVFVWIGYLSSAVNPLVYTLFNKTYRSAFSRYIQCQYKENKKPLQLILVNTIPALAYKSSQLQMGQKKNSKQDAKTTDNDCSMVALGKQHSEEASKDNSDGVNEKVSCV

Tests used:
[1] = molecular target: 5-hydroxytryptamine receptor 2A (Homo sapiens) (UniProt P28223); assay: Agonist activity at 5HT2A receptor (unknown origin) by cell based calcium mobilization assay relative to control
[2] = molecular target: Norepinephrine transporter (Rattus norvegicus) (UniProt Q9WTR4); assay: Induction of NET-mediated norepinephrine release in rat brain synaptosomes by [3H]NE release assay relative to control
Rattus norvegicus = species: Rattus norvegicus; assay: Selectivity index, ratio of EC50 for NET-mediated norepinephrine release in rat brain synaptosomes to EC50 for DAT-mediated dopamine release in rat brain synaptosomes
[3] = molecular target: 5-hydroxytryptamine receptor 2A (Homo sapiens) (UniProt P28223); assay: Agonist activity at 5HT2A receptor (unknown origin) at 10 uM by cell based calcium mobilization assay

## NCCc1c[nH]c2cc(F)ccc12
[1]
  Emax: 101%

## CCC(N)Cc1c[nH]c2ccccc12 (stereo not drawn)
[1]
  Emax: 21%
[2]
  Emax: 78%

## Cn1cc(CCN)c2ccccc21
[1]
  Emax: 99%

## CNCCc1c[nH]c2ccccc12
[1]
  Emax: 96%

## NCCc1c[nH]c2cccc(F)c12
[1]
  Emax: 108%

## CC(N)Cc1c[nH]c2ccc(Cl)cc12 (stereo not drawn)
[1]
  Emax: 105%
Rattus norvegicus
  Ratio EC50: 63

## CCC(N)Cc1c[nH]c2ccc(F)cc12 (stereo not drawn)
[1]
  Emax: 87%
Rattus norvegicus
  Ratio EC50: 36

## CC[C@@H](N)Cc1c[nH]c2ccccc12
[1]
  Emax: 61%
[2]
  Emax: 71%

## CC(N)Cc1c[nH]c2ccc(F)cc12 (stereo not drawn)
[1]
  Emax: 107%
Rattus norvegicus
  Ratio EC50: 4

## Cc1ccc2c(CCN)c[nH]c2c1
[1]
  Emax: 110%

## CC[C@H](N)Cc1c[nH]c2ccccc12
[1]
  Emax: inactive
[2]
  Emax: 75%
[3]
  Activity: inactive

## NCCc1c[nH]c2ccc(Cl)cc12
[1]
  Emax: 109%

## Cc1ccc2[nH]cc(CCN)c2c1
[1]
  Emax: 100%

## COc1cccc2[nH]cc(CCN)c12
[1]
  Emax: 108%

## Cc1cccc2c(CCN)c[nH]c12
[1]
  Emax: 103%

## CCC(N)Cc1c[nH]c2ccc(Cl)cc12 (stereo not drawn)
[1]
  Emax: 87%

## COc1ccc2c(CCN)c[nH]c2c1
[1]
  Emax: 111%

## COc1cccc2c(CCN)c[nH]c12
[1]
  Emax: 107%

## NCCc1c[nH]c2ccc(Br)cc12
[1]
  Emax: 108%

## NCCc1c[nH]c2ccc(F)cc12
[1]
  Emax: 110%

## NCCc1c[nH]c2c(Cl)cccc12
[1]
  Emax: 102%
